The results in this text go back to ChEMBL document CHEMBL5725597, “Substituted pyrrolo[3′,2′:5,6]pyrido[4,3-d]pyrimidines and JAK inhibitors comprising the same” (2017).

Protein sequences, listed by entry. Tags and fused reporters are not part of them. Lines headed by an entry give the natural chain unless they say otherwise; changes in a name come on top.
UniProt O60674: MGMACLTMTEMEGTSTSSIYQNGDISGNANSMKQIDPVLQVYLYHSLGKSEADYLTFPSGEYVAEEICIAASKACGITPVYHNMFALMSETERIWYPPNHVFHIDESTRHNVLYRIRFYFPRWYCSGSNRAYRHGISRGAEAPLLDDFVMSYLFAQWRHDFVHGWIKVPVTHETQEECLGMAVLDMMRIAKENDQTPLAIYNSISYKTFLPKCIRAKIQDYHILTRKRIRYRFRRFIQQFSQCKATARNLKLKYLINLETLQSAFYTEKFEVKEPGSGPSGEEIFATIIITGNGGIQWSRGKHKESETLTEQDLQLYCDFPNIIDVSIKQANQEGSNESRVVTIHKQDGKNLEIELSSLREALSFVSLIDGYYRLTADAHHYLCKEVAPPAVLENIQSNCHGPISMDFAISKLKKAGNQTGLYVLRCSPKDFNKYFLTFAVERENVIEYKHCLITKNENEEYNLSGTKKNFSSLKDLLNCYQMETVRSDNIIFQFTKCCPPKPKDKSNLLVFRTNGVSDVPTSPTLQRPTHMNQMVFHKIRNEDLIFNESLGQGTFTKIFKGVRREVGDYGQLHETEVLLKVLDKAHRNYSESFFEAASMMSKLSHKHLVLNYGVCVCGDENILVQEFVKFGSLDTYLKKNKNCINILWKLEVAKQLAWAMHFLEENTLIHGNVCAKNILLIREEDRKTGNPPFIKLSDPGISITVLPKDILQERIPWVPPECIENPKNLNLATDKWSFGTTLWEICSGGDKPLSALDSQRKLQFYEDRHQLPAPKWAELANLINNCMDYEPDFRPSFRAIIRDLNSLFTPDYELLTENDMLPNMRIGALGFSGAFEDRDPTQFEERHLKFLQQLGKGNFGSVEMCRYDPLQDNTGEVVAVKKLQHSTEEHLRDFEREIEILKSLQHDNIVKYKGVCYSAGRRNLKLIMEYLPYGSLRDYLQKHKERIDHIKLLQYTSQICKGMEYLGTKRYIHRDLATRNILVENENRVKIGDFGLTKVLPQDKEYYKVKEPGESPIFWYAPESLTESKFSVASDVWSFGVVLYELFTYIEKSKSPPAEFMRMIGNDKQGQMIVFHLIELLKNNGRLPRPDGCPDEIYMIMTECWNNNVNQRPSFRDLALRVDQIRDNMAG
UniProt P23458: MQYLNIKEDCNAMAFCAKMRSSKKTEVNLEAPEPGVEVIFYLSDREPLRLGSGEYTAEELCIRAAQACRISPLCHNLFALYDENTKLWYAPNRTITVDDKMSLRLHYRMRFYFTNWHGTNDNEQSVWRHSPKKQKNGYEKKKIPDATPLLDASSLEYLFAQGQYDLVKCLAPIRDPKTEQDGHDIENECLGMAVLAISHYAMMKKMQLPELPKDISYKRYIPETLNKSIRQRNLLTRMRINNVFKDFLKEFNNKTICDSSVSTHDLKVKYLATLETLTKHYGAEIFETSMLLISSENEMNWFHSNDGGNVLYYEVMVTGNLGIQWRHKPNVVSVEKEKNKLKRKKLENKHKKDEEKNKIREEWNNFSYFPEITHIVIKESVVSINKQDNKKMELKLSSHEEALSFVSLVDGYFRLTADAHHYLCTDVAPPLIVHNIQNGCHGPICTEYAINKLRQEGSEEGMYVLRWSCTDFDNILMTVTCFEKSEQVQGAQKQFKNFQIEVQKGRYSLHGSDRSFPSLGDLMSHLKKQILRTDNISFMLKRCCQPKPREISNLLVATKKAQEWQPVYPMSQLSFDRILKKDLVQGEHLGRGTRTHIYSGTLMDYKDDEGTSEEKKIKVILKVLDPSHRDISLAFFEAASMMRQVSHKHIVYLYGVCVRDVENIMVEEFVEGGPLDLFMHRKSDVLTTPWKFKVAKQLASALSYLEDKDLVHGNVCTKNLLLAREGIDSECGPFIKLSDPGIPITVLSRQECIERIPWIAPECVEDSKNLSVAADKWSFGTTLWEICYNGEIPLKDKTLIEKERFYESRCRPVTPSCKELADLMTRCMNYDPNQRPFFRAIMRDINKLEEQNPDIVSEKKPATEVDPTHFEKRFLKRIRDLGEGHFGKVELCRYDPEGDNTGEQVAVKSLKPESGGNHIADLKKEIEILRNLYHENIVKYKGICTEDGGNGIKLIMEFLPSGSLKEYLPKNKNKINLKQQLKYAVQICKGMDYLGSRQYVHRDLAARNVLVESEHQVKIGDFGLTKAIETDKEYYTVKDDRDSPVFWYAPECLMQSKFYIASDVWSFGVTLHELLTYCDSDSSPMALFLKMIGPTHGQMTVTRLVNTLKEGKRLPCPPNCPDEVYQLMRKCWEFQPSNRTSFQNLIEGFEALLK
UniProt P29597: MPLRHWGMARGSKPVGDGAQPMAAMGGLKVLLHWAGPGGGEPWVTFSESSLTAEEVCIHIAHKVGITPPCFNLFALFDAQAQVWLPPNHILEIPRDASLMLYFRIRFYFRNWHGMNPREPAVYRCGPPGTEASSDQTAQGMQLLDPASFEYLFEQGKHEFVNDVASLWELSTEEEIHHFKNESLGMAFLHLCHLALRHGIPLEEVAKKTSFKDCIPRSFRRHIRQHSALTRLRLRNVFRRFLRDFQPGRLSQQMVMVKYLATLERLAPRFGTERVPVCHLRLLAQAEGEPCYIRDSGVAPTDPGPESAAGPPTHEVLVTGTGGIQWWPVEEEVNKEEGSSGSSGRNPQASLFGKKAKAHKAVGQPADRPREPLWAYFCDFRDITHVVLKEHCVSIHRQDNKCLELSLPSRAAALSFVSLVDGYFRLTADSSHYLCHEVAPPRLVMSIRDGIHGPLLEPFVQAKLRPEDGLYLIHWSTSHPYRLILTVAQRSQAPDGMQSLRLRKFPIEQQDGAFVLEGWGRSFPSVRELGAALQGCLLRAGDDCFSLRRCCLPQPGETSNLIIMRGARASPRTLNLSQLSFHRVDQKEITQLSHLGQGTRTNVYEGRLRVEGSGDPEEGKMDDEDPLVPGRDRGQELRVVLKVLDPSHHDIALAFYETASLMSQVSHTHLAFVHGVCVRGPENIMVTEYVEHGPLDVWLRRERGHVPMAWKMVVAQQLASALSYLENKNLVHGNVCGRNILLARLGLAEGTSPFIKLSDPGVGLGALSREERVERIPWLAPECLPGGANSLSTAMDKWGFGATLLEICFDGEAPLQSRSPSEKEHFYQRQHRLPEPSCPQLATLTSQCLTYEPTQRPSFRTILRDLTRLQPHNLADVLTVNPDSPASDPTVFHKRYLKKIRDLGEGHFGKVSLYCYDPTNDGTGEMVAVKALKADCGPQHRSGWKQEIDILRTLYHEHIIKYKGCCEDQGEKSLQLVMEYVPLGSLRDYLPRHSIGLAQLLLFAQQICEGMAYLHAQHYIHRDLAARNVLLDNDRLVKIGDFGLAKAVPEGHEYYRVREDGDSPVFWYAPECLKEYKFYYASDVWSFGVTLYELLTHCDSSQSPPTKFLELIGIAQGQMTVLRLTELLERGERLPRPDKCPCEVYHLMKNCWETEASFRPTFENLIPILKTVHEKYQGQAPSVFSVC

A word on the IC50: it is the point on the concentration scale where inhibition reaches its midpoint. Read a high IC50 as lower potency.

Structures are written as SMILES.

Assay [1] addresses Tyrosine-protein kinase JAK2 (Homo sapiens, UniProt O60674). As to the kind of experiment: Enzyme Assay: JAK1, JAK2, JAK3 and Tyk2 were purchased from Carna Biosciences, Inc. As the substrate, LANCE Ultra ULight-JAK1 Peptide (manufactured by PerkinElmer Co., Ltd. (PE)) was used. Dilute solutions of compounds and enzymes in assay buffer (50 mM HEPES pH7.5, 1 mM EGTA, 1 mM MgCl2, 2 mM DTT, 0.01% Tween20) were dispensed into wells of a 384-well black plate. After 5 minutes of …. (In general: In TR-FRET formats the signal depends on donor and acceptor labels being close together.)

Assay [2] concerns the target Tyrosine-protein kinase JAK1 (Homo sapiens, UniProt P23458).
In assay [3] the target is Non-receptor tyrosine-protein kinase TYK2 (Homo sapiens, UniProt P29597). Put plainly: Enzyme Assay: JAK1, JAK2, JAK3 and Tyk2 were purchased from Carna Biosciences, Inc. As the substrate, LANCE Ultra ULight-JAK1 Peptide (manufactured by PerkinElmer Co., Ltd. (PE)) was used. Dilute solutions of compounds and enzymes in assay buffer (50 mM HEPES pH7.5, 1 mM EGTA, 1 mM MgCl2, 2 mM DTT, 0.01% Tween20) were dispensed into wells of a 384-well black plate. After 5 minutes of ….

For assay [4], the target named is T1, Tyrosine-protein kinase JAK3 (Homo sapiens, UniProt P52333).
T1 sequence (P52333 whole entry): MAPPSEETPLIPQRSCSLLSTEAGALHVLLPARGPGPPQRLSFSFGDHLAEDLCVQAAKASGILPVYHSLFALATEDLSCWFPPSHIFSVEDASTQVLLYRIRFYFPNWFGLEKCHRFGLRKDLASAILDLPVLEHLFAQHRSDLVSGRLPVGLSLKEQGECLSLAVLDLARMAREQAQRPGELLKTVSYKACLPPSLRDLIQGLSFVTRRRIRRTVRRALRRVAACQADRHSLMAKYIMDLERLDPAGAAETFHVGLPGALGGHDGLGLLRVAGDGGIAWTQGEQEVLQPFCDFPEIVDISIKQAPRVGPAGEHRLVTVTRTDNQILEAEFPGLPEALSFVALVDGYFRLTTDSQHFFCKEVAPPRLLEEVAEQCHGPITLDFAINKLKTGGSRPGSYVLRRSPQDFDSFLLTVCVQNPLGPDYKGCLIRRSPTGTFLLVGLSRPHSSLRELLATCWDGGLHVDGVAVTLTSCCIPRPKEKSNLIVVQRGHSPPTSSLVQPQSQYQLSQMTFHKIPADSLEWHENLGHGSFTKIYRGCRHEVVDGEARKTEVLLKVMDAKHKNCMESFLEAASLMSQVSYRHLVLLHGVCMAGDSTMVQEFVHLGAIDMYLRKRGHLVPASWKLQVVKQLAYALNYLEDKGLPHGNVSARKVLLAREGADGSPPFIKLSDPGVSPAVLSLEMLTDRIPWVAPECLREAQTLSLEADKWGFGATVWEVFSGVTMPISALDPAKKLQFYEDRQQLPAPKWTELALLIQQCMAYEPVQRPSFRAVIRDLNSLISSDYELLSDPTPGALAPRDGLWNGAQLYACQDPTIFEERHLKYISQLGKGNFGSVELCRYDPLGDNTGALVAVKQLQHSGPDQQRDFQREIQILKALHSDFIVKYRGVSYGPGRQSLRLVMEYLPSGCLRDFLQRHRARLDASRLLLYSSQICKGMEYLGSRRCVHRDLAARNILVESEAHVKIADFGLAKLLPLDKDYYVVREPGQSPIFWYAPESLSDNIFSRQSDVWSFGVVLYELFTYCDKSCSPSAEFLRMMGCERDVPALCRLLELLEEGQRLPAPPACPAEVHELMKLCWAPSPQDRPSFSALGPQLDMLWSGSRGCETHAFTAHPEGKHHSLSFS

`Cc1cc(OC(F)(F)F)ccc1NC1CCC(c2nnn3cnc4[nH]ccc4c23)CC1` (configuration not stated) returned an IC50 in assay [1] of 270 nM.
Still for that read-out and setting: in the case of `FC(F)(F)c1cc(CN2CCC(c3nnn4cnc5[nH]ccc5c34)CC2)cc(C(F)(F)F)c1` it was 230 nM.
On to `N#Cc1ccc(CN2CCCC(c3nnn4cnc5[nH]ccc5c34)C2)cc1` (configuration not stated), for which the IC50 in assay [2] was 330 nM; in assay [1], 280 nM.
`FC(F)(F)c1cc(CN2CCC(c3nnn4cnc5[nH]ccc5c34)CC2)ccc1Cl`: half-maximal inhibition in assay [3] (IC50) was put at 140 nM.
On the same count and under the same terms, in the case of `Fc1ccc(NC[C@H]2CC[C@H](c3nnn4cnc5[nH]ccc5c34)CC2)c(C(F)(F)F)c1` it was 800 nM.
In assay [2], `O[C@H]1CC[C@H](c2nnn3cnc4[nH]ccc4c23)CC1` showed an IC50 of 0.084 nM.
In the case of `O=C(Nc1nncs1)N1CCCC(c2nnn3cnc4[nH]ccc4c23)C1` (racemic), the half-inhibitory concentration (IC50) in assay [4] stood at 510 nM; in assay [1] it was 1600 nM.
Take `N#CCC(=O)N1CCCC(c2ncn3cnc4[nH]ccc4c23)C1` (racemic): in assay [4], the IC50 came to 65 nM.
In assay [2], `c1cncc(CN2CCCC(c3nnn4cnc5[nH]ccc5c34)C2)c1` (racemic) yielded an IC50 of 45 nM.
Consider `O=C(OCc1ccccc1)N1CCCC(c2ncn3cnc4[nH]ccc4c23)C1` (racemic), for which 150 nM corresponded to half-maximal inhibition in assay [1] (IC50).
